Only a part is listed here, and it is no random draw. Active and inactive are the calls of the source.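 The calls were made as follows: active = inhibition above the campaign mean of all tested compounds plus 3 SD (cut at about 14% in these data); inactive = the rest.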

Chains of the proteins cited; added tags and fusions are not shown.
UniProt O75884, whole entry: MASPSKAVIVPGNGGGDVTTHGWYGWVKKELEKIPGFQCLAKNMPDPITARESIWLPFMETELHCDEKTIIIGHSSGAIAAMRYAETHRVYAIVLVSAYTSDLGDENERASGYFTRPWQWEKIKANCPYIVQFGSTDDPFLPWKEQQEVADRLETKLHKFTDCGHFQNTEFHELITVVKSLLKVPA

In general, inhibition refers to the drop in the measured response relative to a control, in per cent.

This experiment concerns the target Serine hydrolase RBBP9 (Homo sapiens) (UniProt O75884). Briefly: blockers of RBBP9 serine hydrolase labeling – biochemical, fluorescence polarization, FP-Rh probe, HTS, primary screen (AID 1515).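 Also: plate controls were DMSO wells with RBBP9 for no effect and wells lacking RBBP9 protein for full effect.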 As to conditions: recombinant RBBP9, FP-Rh probe fluorescence polarization; at 7.94 µM; hits give high values. Background: Fluorescence polarisation rises when a labelled molecule tumbles more slowly, as on binding a larger partner.
Consider `CC(C)(C)c1ccc(OP(C)(=O)O)cc1`, for which the inhibition is inactive: -0.67%.

With `COc1ccccc1OP(C)(=O)Nc1ccccc1Br` (stereo not drawn), the inhibition is inactive: -3.6%. Take `CP(=O)(Nc1ccc(Cl)cc1)Oc1ccc(F)cc1` (stereo not drawn): the inhibition is inactive: -5.85%. Under `CN(C)C(=O)c1c([N+](=O)[O-])cc([N+](=O)[O-])cc1[N+](=O)[O-]` stands inactive: -5.49%; under `CCN(CC)CC(O)COC(=O)C(O)(c1ccccc1)C1CCCCC1` (stereo not drawn), inactive: -5.21%. Under `COc1ccc(OP(C)(=O)Nc2ccc(Br)cc2)cc1` (stereo not drawn) stands inactive: -9.12%; under `COc1ccccc1OP(C)(=O)Nc1c(C)n(C)n(-c2ccccc2)c1=O` (stereo not drawn), inactive: -3.47%; under `O=C(OCCCN1CCCC1)C(O)(c1ccccc1)C1CCCCC1` (stereo not drawn), inactive: 1.67%. Under `CP(=O)(Oc1ccccc1)N1CCOC1=O` (stereo not drawn) stands inactive: -5.04%; under `CCc1ccc(OP(C)(=O)Nc2cccnc2)cc1` (stereo not drawn), inactive: -6.94%; under `CCOC(=O)c1ccc(NP(C)(=O)Oc2ccc(Cl)cc2)cc1` (stereo not drawn), inactive: -0.28%. Regarding `CP(=O)(OC12CC3CC(CC(C3)C1)C2)OC12CC3CC(CC(C3)C1)C2`, the inhibition is inactive: -5.36%.

For the compound `Cc1nc2ccc3ccccc3c2o1.O=[N+]([O-])c1cc([N+](=O)[O-])c(O)c([N+](=O)[O-])c1`, the inhibition is inactive: -1.96%.

As to `CP(=O)(OCCOc1ccccc1)OCCOc1ccccc1`, the inhibition is inactive: -8.74%.

For `CP(=O)(Nc1ccc(Cl)cc1Cl)Oc1ccccc1` (stereo not drawn), the inhibition is inactive: -2.25%.

Regarding `Cc1cc(C)cc(OP(C)(=O)Nc2cccc(C(F)(F)F)c2)c1` (stereo not drawn), the inhibition is inactive: -5.2%. Under `COc1ccccc1OP(C)(=O)Nc1ccc(C)c(C)c1` (stereo not drawn) stands inactive: -7.61%; under `COc1ccc(OP(C)(=O)Nc2ccccc2Br)cc1` (stereo not drawn), inactive: -5.56%; under `O=[N+]([O-])c1cc([N+](=O)[O-])c(Nc2ccccn2)c([N+](=O)[O-])c1`, inactive: -1.94%. Under `Cc1c(NP(C)(=O)Oc2ccc(C(C)C)cc2)c(=O)n(-c2ccccc2)n1C` (stereo not drawn) stands inactive: -5.58%; under `CP(=O)(Nc1ccccn1)Oc1ccccc1` (stereo not drawn), inactive: -7.45%; under `COc1ccccc1OP(C)(=O)Nc1ccc(C)cc1C` (stereo not drawn), inactive: -8.44%.

Consider `CCc1ccc(OP(C)(=O)O)cc1`, for which the inhibition is inactive: -0.52%. The same measure for `COc1ccccc1OP(C)(=O)Nc1ccc(Br)cc1` (stereo not drawn): inactive: -7.01%. `COc1ccc(OP(C)(=O)Nc2ccccn2)cc1` (stereo not drawn): the inhibition was inactive: -4.97%. Under `CN(C)CCOC(=O)C(O)(c1ccccc1)C1CCCC1` (stereo not drawn) stands inactive: -13.6%; under `O=C(OC1CN2CCC1CC2)c1ccc([N+](=O)[O-])cc1` (stereo not drawn), inactive: -1.33%; under `O=C(OCCN1CCN(CCOCc2ccccc2)CC1)C(O)(c1ccccc1)c1ccccc1`, inactive: -1.65%.

As to `CP(=O)(Nc1ccccc1F)Oc1ccccc1` (stereo not drawn), the inhibition was inactive: -10.9%.

As for `CC(C)c1ccc(OP(C)(=O)Nc2ccc(SC(F)(F)F)cc2)cc1` (stereo not drawn), the inhibition was inactive: 1.66%.

As to `CCN(CC)CCCOC(=O)C(O)(c1ccccc1)C1CCCCC1` (stereo not drawn), the inhibition is inactive: -0.06%.

Consider `CP(=O)(Nc1ccccc1)Oc1ccc(F)cc1` (stereo not drawn), for which the inhibition is inactive: -7.48%. Under `CCCCCOc1ccc(NP(C)(=O)Oc2ccc(Cl)cc2Cl)cc1` (stereo not drawn) stands inactive: -4.63%; under `CCOC(=O)c1ccc(NP(C)(=O)Oc2ccc(F)cc2)cc1` (stereo not drawn), inactive: -12.6%. On to `COc1ccc(OP(C)(=O)Nc2ccc(SC(F)(F)F)cc2)cc1` (stereo not drawn), for which the inhibition was inactive: 1.25%. As for `O=[N+]([O-])c1ccc(OP2(=O)COCCO2)cc1` (stereo not drawn), the inhibition is inactive: 1.74%.

With `O=[N+]([O-])c1cc([N+](=O)[O-])c(NCC2CCS(=O)(=O)C2)c([N+](=O)[O-])c1` (stereo not drawn), the inhibition was inactive: -2.96%. Under `Cc1cc(-c2cccc3ccccc23)c(C)cn1.O=[N+]([O-])c1cc([N+](=O)[O-])c(O)c([N+](=O)[O-])c1` stands inactive: -11.4%. Under `COc1ccc(OP(C)(=O)Nc2cccc(Br)c2)cc1` (stereo not drawn) stands inactive: 10.7%. Turning to `CN(C)CCOC(=O)C(O)(c1ccccc1)C1CCCCC1` (stereo not drawn), the inhibition is inactive: -7.3%. Consider `COc1ccc(NP(C)(=O)Oc2ccccc2OC)cc1` (stereo not drawn), for which the inhibition was inactive: -4.58%.

Regarding `CP(=O)(Nc1ccc2c(c1)OCCO2)Oc1ccccc1` (stereo not drawn), the inhibition was inactive: -9.93%.

Regarding `Cc1ccccc1NP(C)(=O)Nc1ccccc1C`, the inhibition is inactive: -8.58%.

In the case of `CP(=O)(Nc1ccc(SC(F)(F)F)cc1)Oc1ccc(F)cc1` (stereo not drawn), the inhibition is inactive: -5.19%. The same measure for `CCOP(C)(=S)SCC(=O)NC(C)(CC)C(=O)O` (stereo not drawn): inactive: -2.24%; for `Cc1nc2ccc3ccccc3c2s1.O=[N+]([O-])c1cc([N+](=O)[O-])c(O)c([N+](=O)[O-])c1`: inactive: -3.31%; for `O=[N+]([O-])c1cc([N+](=O)[O-])c(-n2nnc3ccccc32)c([N+](=O)[O-])c1`: inactive: -7.01%.

In the case of `COc1ccccc1OP(C)(=O)Nc1c(C)cccc1C` (stereo not drawn), the inhibition is inactive: 1.11%. The same measure for `CN1CCCCC1COC(=O)C1(O)c2ccccc2CCc2ccccc21` (stereo not drawn): inactive: 3.97%; for `CP(=O)(Nc1ccc(SC(F)(F)F)cc1)Oc1ccccc1` (stereo not drawn): inactive: -6.2%; for `CCCOc1ccc(NP(C)(=O)Oc2ccc(Cl)cc2)cc1` (stereo not drawn): inactive: 9.15%.

With `O=[N+]([O-])c1cc([N+](=O)[O-])c(Nc2nnnn2CCO)c([N+](=O)[O-])c1`, the inhibition was inactive: -0.57%. Regarding `CCOC(=O)C(CC)C1=NC(C)(C)Cc2ccccc21.O=[N+]([O-])c1cc([N+](=O)[O-])c(O)c([N+](=O)[O-])c1` (stereo not drawn), the inhibition is inactive: 2.68%. As for `CC1=NCCc2c1[nH]c1ccccc21.O=[N+]([O-])c1cc([N+](=O)[O-])c(O)c([N+](=O)[O-])c1`, the inhibition is inactive: -10.8%.

Turning to `O=C(O)c1cccc(Nc2c([N+](=O)[O-])cc([N+](=O)[O-])cc2[N+](=O)[O-])c1`, the inhibition is inactive: 4.04%. In the case of `Cc1ccc(C)c(NP(C)(=O)Oc2ccccc2)c1` (stereo not drawn), the inhibition was inactive: -9.2%. As for `CP(=O)(Nc1cccc(Br)c1)Oc1ccccc1` (stereo not drawn), the inhibition is inactive: 0.2%.

Take `Cc1cc(C)cc(OP(C)(=O)Nc2ccccn2)c1` (stereo not drawn): the inhibition is inactive: -3.88%. Under `COc1ccccc1OP(C)(=O)Nc1cccc(Br)c1` (stereo not drawn) stands inactive: 0.71%; under `CCOC(=O)c1ccc(NP(C)(=O)Oc2cc(C)cc(C)c2)cc1` (stereo not drawn), inactive: -4.1%; under `Cc1cc(C)cc(OP(C)(=O)Nc2ccc(C)cc2C)c1` (stereo not drawn), inactive: -3.61%.

In the case of `CCN(CC)CCCOC(=O)C(O)(c1ccccc1)c1ccccc1`, the inhibition was inactive: 3.64%. Under `COc1ccccc1OP(C)(=O)Nc1ccc(C)cc1` (stereo not drawn) stands inactive: -12.4%; under `Cc1ccc(NP(C)(=O)Oc2ccccc2)c(C)c1` (stereo not drawn), inactive: 5.47%; under `CCOC(=O)c1ccc(NP(C)(=O)Oc2ccccc2)cc1` (stereo not drawn), inactive: -8.2%. The same measure for `Cc1cc(C)cc(OP(C)(N)=O)c1` (stereo not drawn): inactive: -5.63%; for `COc1ccccc1OP(C)(=O)Nc1cc(Cl)ccc1C` (stereo not drawn): inactive: -3.67%. The same measure for `COc1ccc(OP(C)(=O)Nc2cccc(F)c2)cc1` (stereo not drawn): inactive: -8.88%.

With `O=[N+]([O-])c1ccc2c(c1)C=Nc1ccccc1O2`, the inhibition is inactive: -6.07%.

In the case of `CC(C)(C)c1ccc(OP(C)(=O)Nc2ccc(SC(F)(F)F)cc2)cc1` (stereo not drawn), the inhibition was inactive: 1.19%. Turning to `Cc1cccc(C)c1OP(C)(N)=O` (stereo not drawn), the inhibition was inactive: 7.79%. On to `CP(=S)(Nn1cnnc1)Oc1ccccc1` (stereo not drawn), for which the inhibition was inactive: -1.95%. In the case of `CP(=O)(Nc1ccccc1Br)Oc1ccccc1` (stereo not drawn), the inhibition was inactive: -5.39%.

Take `COc1ccccc1OP(C)(=O)Nc1ccccc1` (stereo not drawn): the inhibition was inactive: -6.54%. The same measure for `CCOC(=O)c1ccc(NP(C)(=O)Oc2ccc(OC)cc2)cc1` (stereo not drawn): inactive: 0.71%. As to `CCOP(C)(=S)SCC(=O)NC(C)C(=O)O` (stereo not drawn), the inhibition is inactive: -6.75%.

As to `CP(=O)(Nc1ccccn1)Oc1ccc(Cl)cc1` (stereo not drawn), the inhibition was inactive: -9.49%. The same measure for `Cc1cccc(C)c1OP(C)(=O)Nc1ccc(SC(F)(F)F)cc1` (stereo not drawn): inactive: -4.93%; for `CP(=O)(Nc1ccc(SC(F)(F)F)cc1)Oc1ccc(Cl)cc1` (stereo not drawn): inactive: -4.3%. As for `CP(=O)(Oc1ccccc1)OC(c1ccccc1)C(F)(F)F` (stereo not drawn), the inhibition is inactive: -1.14%.

As for `CCc1ccc(OP(C)(=O)N2CCN(c3ccc([N+](=O)[O-])cc3)CC2)cc1` (stereo not drawn), the inhibition is inactive: -10.7%. Under `CP(=O)(NC(=O)Nc1ccccc1)Oc1ccccc1` (stereo not drawn) stands inactive: -0.38%; under `Cc1cc(C)cc(OP(C)(=O)Nc2ccc(SC(F)(F)F)cc2)c1` (stereo not drawn), inactive: -9.45%.

The record behind these values is PubChem BioAssay AID1515 (The Scripps Research Institute Molecular Screening Center, 2009).
